PubChem BioAssay AID1222 (Sanford-Burnham Center for Chemical Genomics, 2008)
The list shows a part of the results. Results with a measured potency or affinity are listed apart. Activity calls are given as the source filed them.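 Rule for the calls: active = EC50 below 50 µM in the dose-response confirmation; inactive = the rest.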

Experiment: protection against thapsigargin-triggered cell killing – 384-well, CSM14.1, ATP luminescence, primary screen (AID 1222);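 note: death triggered by thapsigargin at about 15 µM added after 2 h compound pretreatment; cell ATP read after overnight thapsigargin exposure of roughly 18 to 22 hours; reference of the scale not given here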
Conditions: CSM14.1 thapsigargin-induced death rescue, at 20 µM, active compounds read high

Row | SMILES | cellular ATP content (survival)
1 | CCOC(=O)c1ccc(NP(C)(=O)Oc2ccc(F)cc2)cc1 (configuration not stated) | inactive: -3.8%
2 | COc1ccc(OP(C)(=O)Nc2ccc(SC(F)(F)F)cc2)cc1 (configuration not stated) | inactive: -1.4%
3 | CP(=O)(Nc1ccccc1)Oc1ccc(F)cc1 (configuration not stated) | inactive: -0.9%
4 | CCN(CC)CCCOC(=O)C(O)(c1ccccc1)C1CCCCC1 (configuration not stated) | inactive: -2.9%
5 | CP(=O)(Nc1ccccc1F)Oc1ccccc1 (configuration not stated) | inactive: 1.5%
6 | CC(C)c1ccc(OP(C)(=O)Nc2ccc(SC(F)(F)F)cc2)cc1 (configuration not stated) | inactive: -3.7%
7 | O=C(OCCN1CCN(CCOCc2ccccc2)CC1)C(O)(c1ccccc1)c1ccccc1 | inactive: -1.2%
8 | CCOP(C)(=S)SCC(=O)NC(C)(CC)C(=O)O (configuration not stated) | inactive: -4.2%
9 | CP(=O)(Nc1ccc2c(c1)OCCO2)Oc1ccccc1 (configuration not stated) | inactive: 2.3%
10 | CN(C)CCOC(=O)C(O)(c1ccccc1)C1CCCCC1 (configuration not stated) | inactive: -0.2%
11 | COc1ccc(NP(C)(=O)Oc2ccccc2OC)cc1 (configuration not stated) | inactive: 0.3%
12 | COc1ccc(OP(C)(=O)Nc2cccc(Br)c2)cc1 (configuration not stated) | inactive: -0.8%
13 | O=[N+]([O-])c1cc([N+](=O)[O-])c(NCC2CCS(=O)(=O)C2)c([N+](=O)[O-])c1 (configuration not stated) | inactive: 4.8%
14 | CCOC(=O)c1ccc(NP(C)(=O)Oc2ccc(Cl)cc2)cc1 (configuration not stated) | inactive: 2.7%
15 | CP(=O)(OC12CC3CC(CC(C3)C1)C2)OC12CC3CC(CC(C3)C1)C2 | inactive: 2.2%
16 | COc1ccccc1OP(C)(=O)Nc1c(C)n(C)n(-c2ccccc2)c1=O (configuration not stated) | inactive: -1.4%
17 | CCc1ccc(OP(C)(=O)Nc2cccnc2)cc1 (configuration not stated) | inactive: -0.8%
18 | CP(=O)(Oc1ccccc1)N1CCOC1=O (configuration not stated) | inactive: 1.6%
19 | COc1ccc(OP(C)(=O)Nc2ccc(Br)cc2)cc1 (configuration not stated) | inactive: 4.8%
20 | CCN(CC)CC(O)COC(=O)C(O)(c1ccccc1)C1CCCCC1 (configuration not stated) | inactive: -0.1%
21 | CN(C)C(=O)c1c([N+](=O)[O-])cc([N+](=O)[O-])cc1[N+](=O)[O-] | inactive: -0.8%
22 | COc1ccccc1OP(C)(=O)Nc1ccccc1Br (configuration not stated) | inactive: -0.2%
23 | CC(C)(C)c1ccc(OP(C)(=O)O)cc1 | inactive: 2%

Row | SMILES | cellular ATP content (survival)
24 | CP(=O)(Nc1ccc(Cl)cc1)Oc1ccc(F)cc1 (configuration not stated) | inactive: 0.2%
25 | COc1ccc(OP(C)(=O)Nc2ccccn2)cc1 (configuration not stated) | inactive: 0.1%
26 | CN(C)CCOC(=O)C(O)(c1ccccc1)C1CCCC1 (configuration not stated) | inactive: 0.5%
27 | COc1ccccc1OP(C)(=O)Nc1ccc(C)cc1C (configuration not stated) | inactive: -1%
28 | CCc1ccc(OP(C)(=O)O)cc1 | inactive: -0.6%
29 | Cc1c(NP(C)(=O)Oc2ccc(C(C)C)cc2)c(=O)n(-c2ccccc2)n1C (configuration not stated) | inactive: 0.4%
30 | O=[N+]([O-])c1cc([N+](=O)[O-])c(Nc2ccccn2)c([N+](=O)[O-])c1 | inactive: 4.4%
31 | COc1ccccc1OP(C)(=O)Nc1ccc(C)c(C)c1 (configuration not stated) | inactive: -1.2%
32 | COc1ccc(OP(C)(=O)Nc2ccccc2Br)cc1 (configuration not stated) | inactive: 0.1%
33 | Cc1cc(C)cc(OP(C)(=O)Nc2cccc(C(F)(F)F)c2)c1 (configuration not stated) | inactive: -0.3%
34 | CP(=O)(Nc1ccc(Cl)cc1Cl)Oc1ccccc1 (configuration not stated) | inactive: -0.2%
35 | CP(=O)(OCCOc1ccccc1)OCCOc1ccccc1 | inactive: 0.3%
36 | Cc1nc2ccc3ccccc3c2o1.O=[N+]([O-])c1cc([N+](=O)[O-])c(O)c([N+](=O)[O-])c1 | inactive: -1.6%
37 | O=[N+]([O-])c1ccc2c(c1)C=Nc1ccccc1O2 | inactive: -1.3%
38 | CC(C)(C)c1ccc(OP(C)(=O)Nc2ccc(SC(F)(F)F)cc2)cc1 (configuration not stated) | inactive: -0.2%
39 | Cc1cc(C)cc(OP(C)(N)=O)c1 (configuration not stated) | inactive: -0.4%
40 | COc1ccc(OP(C)(=O)Nc2cccc(F)c2)cc1 (configuration not stated) | inactive: -2.4%
41 | COc1ccccc1OP(C)(=O)Nc1cc(Cl)ccc1C (configuration not stated) | inactive: 1.3%
42 | Cc1ccc(NP(C)(=O)Oc2ccccc2)c(C)c1 (configuration not stated) | inactive: 1.6%
43 | COc1ccccc1OP(C)(=O)Nc1ccc(C)cc1 (configuration not stated) | inactive: 1.2%
44 | CCOC(=O)c1ccc(NP(C)(=O)Oc2ccccc2)cc1 (configuration not stated) | inactive: -0.9%
45 | CCN(CC)CCCOC(=O)C(O)(c1ccccc1)c1ccccc1 | inactive: -0.1%
46 | Cc1cc(C)cc(OP(C)(=O)Nc2ccc(SC(F)(F)F)cc2)c1 (configuration not stated) | inactive: 0.5%

Row | SMILES | cellular ATP content (survival)
47 | CP(=O)(NC(=O)Nc1ccccc1)Oc1ccccc1 (configuration not stated) | inactive: -1.4%
48 | CP(=O)(Oc1ccccc1)OC(c1ccccc1)C(F)(F)F (configuration not stated) | inactive: -0.2%
49 | Cc1cccc(C)c1OP(C)(=O)Nc1ccc(SC(F)(F)F)cc1 (configuration not stated) | inactive: -1.4%
50 | CP(=O)(Nc1ccccn1)Oc1ccc(Cl)cc1 (configuration not stated) | inactive: 0.2%
51 | CCOC(=O)c1ccc(NP(C)(=O)Oc2ccc(OC)cc2)cc1 (configuration not stated) | inactive: 0.4%
52 | CP(=O)(Nc1ccccc1Br)Oc1ccccc1 (configuration not stated) | inactive: -3%
53 | COc1ccccc1OP(C)(=O)Nc1ccccc1 (configuration not stated) | inactive: -0.8%
54 | CP(=S)(Nn1cnnc1)Oc1ccccc1 (configuration not stated) | inactive: -1.4%
55 | CN(C)C1(CNC(=O)c2ccc(S(C)(=O)=O)cc2)CCCCC1 | inactive: -1.2%
56 | CCCOc1ccc(NP(C)(=O)Oc2ccc(Cl)cc2)cc1 (configuration not stated) | inactive: 1.1%
57 | CP(=O)(Nc1ccc(SC(F)(F)F)cc1)Oc1ccccc1 (configuration not stated) | inactive: -0.6%
58 | CN1CCCCC1COC(=O)C1(O)c2ccccc2CCc2ccccc21 (configuration not stated) | inactive: -5%
59 | COc1ccccc1OP(C)(=O)Nc1c(C)cccc1C (configuration not stated) | inactive: 6.3%
60 | O=[N+]([O-])c1cc([N+](=O)[O-])c(-n2nnc3ccccc32)c([N+](=O)[O-])c1 | inactive: -0.2%
61 | Cc1nc2ccc3ccccc3c2s1.O=[N+]([O-])c1cc([N+](=O)[O-])c(O)c([N+](=O)[O-])c1 | inactive: 3.5%
62 | CCOC(=O)c1ccc(NP(C)(=O)Oc2cc(C)cc(C)c2)cc1 (configuration not stated) | inactive: -2%
63 | Cc1cc(C)cc(OP(C)(=O)Nc2ccc(C)cc2C)c1 (configuration not stated) | inactive: 0.8%
64 | COc1cc(C(=O)NCC2(N3CCOCC3)CCCCC2)cc(Cl)c1OC(C)C | inactive: -0.1%
65 | Cc1ccc(C)c(NP(C)(=O)Oc2ccccc2)c1 (configuration not stated) | inactive: -0.8%
66 | Cc1cc(C)cc(OP(C)(=O)Nc2ccccn2)c1 (configuration not stated) | inactive: -0.3%
67 | CC1=NCCc2c1[nH]c1ccccc21.O=[N+]([O-])c1cc([N+](=O)[O-])c(O)c([N+](=O)[O-])c1 | inactive: -1.9%
